{
  "source": "patent US20150285789A1",
  "about": "“ASSAYS, SYSTEMS, AND METHODS FOR OBTAINING PERSONALIZED ANABOLIC PROFILES” (BOSTON MEDICAL CENTER CORPORATION, priority 2012, published 2015)",
  "key": {"MC3T3 cells": {"test_system": "MC3T3 cells", "assay": "TGFβ1 mediated inhibition of osteoblast differentiation, qRT-PCR of Runx2, Osx and Smad 7", "format": "cell-based, mouse", "conditions": "factor alone", "protocol": "MC3T3 cells were treated with media containing 1 ng/mL of TGFβ1 for 24 h and then the media were replaced with BMP-2 or BMP-2 with 100 ng/mL rapamycin. RNA was collected 24 h afterwards and analyzed by qRT-PCR and the ΔΔCT method. (FIG. 10A) Values of Runx2 and Osx transcripts are represented as fold change compared with untreated samples (*indicates p-value=0.02). (FIG. 10B) Values of Smad 7 transcripts. Shown are representative results (average of duplicates) of at least three independent experiments. (*indicates p-value=0.03).\nIt was next sought to determine whether rapamycin and FK506 were equivalently capable of attenuating TGFβ1 mediated decline in osteoblastogenesis, an antagonistic effect that has been previously reported.\nIt was next sought to determine whether Smad-7, a suppressor of Smad-2/3 downstream of TGFβ1, might be a target of rapamycin and/or FK-506.\nTotal RNA was extracted by the TRIzol method as recommended by the manufacturer (Invitrogen). Isolated RNA was cleaned up using the Rneasy Kit (Qiagen) and 500 ng of RNA was reverse-transcribed using the High Capacity cDNA Synthesis Kit (Applied Biosystems #4368813). Taqman expression assays were used for detection. The expression of 18S (Applied Biosystems #4319413E) was used for normalization of gene expression values. […] Quantification was determined using the ΔΔCT method and normalized to the untreated sample."}, "C2C12 cells": {"test_system": "C2C12 cells", "assay": "High-throughput screen for small molecules that augment BMP-2 induced ALP expression (osteoblast conversion)", "format": "cell-based, mouse", "conditions": "positive control wells, DM + BMP-2, 72 h", "from_the_text": "FIGS. 4A-4B show a schematic of an exemplary protocol for high-throughput screening of small molecules to investigate BMP-2 induced promotion of osteoblast formation. […] The level of alkaline phosphatase (ALP) activity measured colorimetrically was scored in all wells using three criteria (see Exemplary materials and methods in the Examples section). […] FIG. 4B is a schematic of 5405 compounds tested on C2C12 cells in a 384-well plate format, in duplicate for BMP-2 induced ALP expression*. ALP intensity images were acquired using a Digilab Plate reader. Images were analyzed using three independent criteria and considered for secondary screening and validation in the MC3T3 pre-osteoblast cell line Enhancement of the mRNA and protein levels of the mature osteoblast markers RunX2 and osterix was tested. *Plates were run in duplicate.\nIn the course of the studies on muscle differentiation using the C2C12 cell line, incomplete BMP-2-mediated conversion of C2C12 cells to osteoblasts was observed based on ALP staining with virtually no background in untreated cells. Accordingly, this system was used to screen a library of compounds that augment BMP-2 mediated osteoblast conversion. C2C12 cells were plated at 750 cells per well in a 384-square well plate and were allowed to adhere for 24 h in growth media (GM). […]"}},
  "data": [
    {"molecule": "BMP-2: bone morphogenetic protein-2, positive control and bone formation-inducing agent (protein, UniProt P12643 283-396, looked up) Bone morphogenetic protein 2: QAKHKQRKRLKSSCKRHPLYVDFSDVGWNDWIVAPPGYHAFYCHGECPFPLADHLNSTNHAIVQTLVNSVNSKIPKACCVPTELSAISMLYLDENEKVVLKNYQDMVVEGCGCR", "values": [
      {"measurement": "Smad-7 levels", "setting": "MC3T3 cells", "value": "induces Smad-7"},
      {"measurement": "ALP expression, % of the cells", "setting": "C2C12 cells", "value": "20-30%"}
    ]}
  ]
}
